Assay results published in patent US20210113563A1, “4-(4-CYANO-2-THIOARYL)DIHYDROPYRIMIDINONES FOR TREATING CHRONIC WOUNDS” (pH Pharma Co., Ltd., priority 2015, published 2021).

Amino acid sequences for entries named in this document (tags omitted). Residues count along the entry.
UniProt Q3UP87, 27-265: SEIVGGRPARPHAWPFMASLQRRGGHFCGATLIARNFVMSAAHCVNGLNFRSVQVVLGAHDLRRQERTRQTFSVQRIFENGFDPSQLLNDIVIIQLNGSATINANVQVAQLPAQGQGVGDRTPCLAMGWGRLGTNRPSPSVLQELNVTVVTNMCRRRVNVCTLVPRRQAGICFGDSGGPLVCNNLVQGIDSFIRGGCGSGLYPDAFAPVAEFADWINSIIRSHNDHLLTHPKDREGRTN

Molecular target: Neutrophil Elastase (NE) (Mus musculus, UniProt Q3UP87)
Conditions: db/db mouse, day 8

CC1=C(C#N)[C@@H](c2ccc(C#N)cc2S(C)(=O)=O)N(C)C(=O)N1c1cccc(C(F)(F)F)c1 [Example 5, (4 S)-4-[4-Cyano-2-(methylsulfonyl)phenyl]-3,6-dimethyl-2-oxo-1-[3-(trifluoromethyl)phenyl]-1,2,3,4-tetrahydropyrimidine-5-carbonitrile]
NE activity in wound tissue (0.03 mg/kg BW o.d. p.o.): 7850 ng/mL equivalent | NE activity in wound tissue (0.1 mg/kg BW o.d. p.o.): 8237 ng/mL equivalent | NE activity in wound tissue (3.0 mg/kg BW o.d. p.o.): 4159 ng/mL equivalent | NE activity in wound tissue (10.0 mg/kg BW o.d. p.o.): 2177 ng/mL equivalent

Like-named read-outs stand apart in the source and are kept apart here.
